Assay results as given in patent US20260124194A1 (priority 2022, published 2026).
“And” between values parts separate entries of the source, which are not always exact repeats. Equal entries are not always repeated. Where two headings read alike, the source gives them in different places. Marks after values point to notes of the source that are not given here.

What was measured:
[1] = tested on: Prp-SCA7-92Q transgenic mice; assay: Bowel dilatation in Prp-SCA7-92Q transgenic mice; type: in vivo; conditions: Prp-SCA7-92Q mice
[2] = tested on: subjects with idiopathic Chronic Intestinal Pseudo-Obstruction (CIPO); conditions: in vivo
From the text: Visits where assessed at the beginning of the screening period (Visit 1), at the beginning and at the end of each period of treatment (Visit 2 to Visit 9) and at the end of the follow-up period (Visit 10).
PLA=matching placebo once daily for 4 weeks.
Gastrointestinal symptom severity (abdominal pain, bloating, nausea and vomiting) and bowel habit (weekly recall) were registered on Day −1 and weekly after randomization, during both treatment and washout periods, as appropriate according to the Schedule of Assessments using an e-diary until end of follow up period.
Subjects were instructed to take three capsules of medication orally, once daily at approximately the same time each morning, on an empty stomach, with water.
The Primary efficacy endpoints was to evaluate the change in weekly global gastrointestinal symptoms average index score (WGGSAIS) from start to the end of each treatment period.
The WGGSAIS was obtained by averaging the scores for each of the 4 symptoms assessed weekly: abdominal pain, bloating, nausea and vomiting, with lower scores representing better health. If at least 2 symptoms were assessed, the average score was calculated, otherwise, it was considered missing.
Change between the end of treatment and pre-treatment WGGSAIS value≤−1 point was computed and considered a “success” while changes >−1 were considered a “failure”. The proportion of subjects with a 1-point improvement in WGGSAIS is summarized by treatment sequence, period and timepoint (weekly evaluation by e Diary.
Considering the evaluable pairs, the proportions of pairs of observations with 1-point improvement in WGGSAIS is summarized by treatment and timepoint. […]

[3] = tested on: Rb1 cKO retinoblastoma mice; conditions: mouse, in vivo, ip
[4] = tested on: AKT/mTOR/p70s6k signal pathway; conditions: mouse, in vivo, po
[5] = tested on: MAP2+ neurons; conditions: mouse, in vivo, ip
[6] = tested on: MAP2+ neurons; conditions: mouse, in vivo, po
[7] = tested on: neuronal and glia cells (SOX10+, HuCD+); conditions: mouse, in vivo, ip
[8] = tested on: 5-HT4 receptor mRNA; conditions: mouse, in vivo, ip
[9] = tested on: Hu+ neurons with ataxin-7 inclusions; conditions: mouse, in vivo, po
[10] = tested on: nitrergic neurons (NOS+); conditions: mouse, in vivo, po
[11] = tested on: ChAT+ myenteric neurons; conditions: mouse, in vivo, ip
[12] = tested on: cholinergic neurons (ChAT+); conditions: mouse, in vivo, po
[13] = tested on: calretinin neurons; conditions: mouse, in vivo, po
[14] = tested on: nNOS and ChAT proteins; conditions: mouse, in vivo, po
[15] = tested on: 5HT4 serotoninergic receptor mRNA; conditions: mouse, in vivo
[16] = tested on: subjects with idiopathic Chronic Intestinal Pseudo-Obstruction (CIPO); conditions: in vivo; remark: listed apart in the source
[17] = tested on: subjects with idiopathic Chronic Intestinal Pseudo-Obstruction (CIPO)
[18] = tested on: diabetic and idiopathic gastroparesis subjects; conditions: human, in vivo; cited from earlier work

## CC(C)n1c(=O)c(C(=O)N[C@H]2C[C@H]3CC[C@@H](C2)N3C[C@@H](O)CN(C)S(C)(=O)=O)cc2ccccc21 [velusetrag, 1-isopropyl-2-oxo-1,2-dihydroquinoline-3-carboxylic acid {(1S,3R,5R)-8-[(R)-2-hydroxy-3-(methanesulfonyl-methyl-amino)propyl]-8-azabicyclo[3.2.1]oct-3-yl}amide]
[1]; 1 mg/kg po once daily 5 weeks
  DSI diameter (bowel dilatation): 1.44 mm
  Prox colon diameter (bowel dilatation): 1.75 mm
[1]; 3 mg/kg po once daily 5 weeks
  DSI diameter (bowel dilatation): 1.44 mm
  Prox colon diameter (bowel dilatation): 1.72 mm
[2]
  Bristol scale class Constipation at the end of treatment, n pairs: 0
  Pseudo-obstruction episodes in the group: 4 episodes
  frequency of constipation at the end of treatment: 0%
  mean change in number of weekly bowel movements: 1.7±2.34
  mean change in number of weekly complete evacuations: 0.7±1.21
  mean number of weekly bowel movements: 4.8±2.14
  mean number of weekly complete evacuations: 2.2±1.17
  pairs classified as Diarrhea at end of treatment, %: 75.00%
  pairs classified as Normal at end of treatment, %: 25.00%
  pairs with 0 pseudo-obstruction episodes during treatment period, %: (90.00) %
  pairs with 0 pseudo-obstruction episodes during wash-out period, %: (100.00) %
  vomiting symptom score, mean: 0.5±0.95
  vomiting symptom score, mean difference between velusetrag and placebo in changes between pre-treatment and end of treatment: −0.8±1.44
[3]
  DSI diameter: 1.48 ± 0.02 mm and 1.44 ± 0.01 mm
  Prox Colon diameter: 1.65 ± 0.01 mm and 1.58 ± 0.01***^∘ mm
[4]; 1 mg/kg
  AKT/Actin: 3.0 ± 0.6
  P70S6K: 3.4 ± 1.0
  mTOR/Actin: 6.4 ± 2.0
  pAKT/Actin: 6.4 ± 1.7
  pmTOR/Actin: 7.5 ± 2.4
[4]; 3 mg/kg
  AKT/Actin: 2.0 ± 0.5
  P70S6K: 1.5 ± 0.5^∘
  mTOR/Actin: 1.7 ± 0
  pAKT/Actin: 3.6 ± 1.3
  pmTOR/Actin: 2.4 ± 1.2
[5]
  Total (MAP2+) neurons/field (0.26 mm^2), DSI: 72.3 ± 2.3^∘ neurons/field (0.26 mm^2) and 81.4 ± 2.7^∘∘ neurons/field (0.26 mm^2)
  Total (MAP2+) neurons/field (0.26 mm^2), Proximal colon: 93.8 ± .4^∘ neurons/field (0.26 mm^2) and 79.8 ± 4.2 neurons/field (0.26 mm^2)
[6]; 1 mg/kg
  Total Neurouns (MAP2+)/Field (0.26 mm2), DSI: 69 ± 1.8 /Field (0.26 mm2)
  Total Neurouns (MAP2+)/Field (0.26 mm2), Proximal colon: 160 ± 3.0 /Field (0.26 mm2)
[6]; 3 mg/kg
  Total Neurouns (MAP2+)/Field (0.26 mm2), DSI: 64.55 ± 1.5 /Field (0.26 mm2)
  Total Neurouns (MAP2+)/Field (0.26 mm2), Proximal colon: 157 ± 4.0 /Field (0.26 mm2)
[7]
  HuCD+ mm^2, DSI: 386 ± 11 mm^2 and 328.8 ± 10 mm^2
  HuCD+ mm^2, Proximal colon: 662 ± 32 mm^2 and 642 ± 7.8 mm^2
  SOX10+ mm^2, DSI: 501.9 ± 19 mm^2 and 314 ± 12^∘∘∘ mm^2
  SOX10+ mm^2, Proximal colon: 726 ± 32 mm^2 and 542 ± 10**^∘∘ mm^2
[8]
  mRNA 5HT4, DSI: 0.87 ± 0.03^∘ and 1.02 ± 0.09^∘
  mRNA 5HT4, Proximal colon: 0.88 ± 0.02 and 1.10 ± 0.05
[9]; 1 mg/kg
  % neurons Hu+ with ataxin-7 inclusions, DSI: 22.3 ± 0.04****^∘ %
  % neurons Hu+ with ataxin-7 inclusions, Proximal colon: 24.1 ± 0.03****^ %
  Total neurons Hu+, DSI: 91 ± 7.8^∘
  Total neurons Hu+, Proximal colon: 145.1 ± 8.9^∘∘
[9]; 3 mg/kg
  % neurons Hu+ with ataxin-7 inclusions, DSI: 13.6 ± 0.02****^∘∘∘ %
  % neurons Hu+ with ataxin-7 inclusions, Proximal colon: 17.8 ± 0.02****^∘ %
  Total neurons Hu+, DSI: 99.9 ± 2.6^∘
  Total neurons Hu+, Proximal colon: 175.2 ± 2.9^∘∘∘∘
[10]; 1 mg/kg
  Neurons NOS+ field (0.26 mm^2), Proximal colon: 31 ± 1.5**^∘∘ field (0.26 mm^2)
  Neurons NOS+/field (0.26 mm^2), DSI: 22.0 ± 0.6*^∘∘∘∘ /field (0.26 mm^2)
[10]; 3 mg/kg
  Neurons NOS+ field (0.26 mm^2), Proximal colon: 32 ± 1.0**^∘∘∘∘ field (0.26 mm^2)
  Neurons NOS+/field (0.26 mm^2), DSI: 19.9 ± 0.5**^∘∘∘ /field (0.26 mm^2)
[11]
  ChAT+ myenteric neurons/Field (0.41 mm^2), Proximal colon: 169.7 ± 4.8 neurons/Field (0.41 mm^2) and 187.4 ± 5.9 neurons/Field (0.41 mm^2)
[12]; 1 mg/kg
  % neurons (ChAT+) with ataxin-7 inclusions, Proximal colon: 27.8 ± 1.1 %
  % neurons ChAT+ with ataxin-7 inclusions, DSI: 14.3 ± 1.0 %
  Neurons ChAT+ field (0.26 mm^2), Proximal colon: 94.4 ± 2.4^∘ field (0.26 mm^2)
  Neurons ChAT+/field (0.26 mm^2), DSI: 73.3 ± 1.8^∘∘ /field (0.26 mm^2)
[12]; 3 mg/kg
  % neurons (ChAT+) with ataxin-7 inclusions, Proximal colon: 24.6 ± 1.5 %
  % neurons ChAT+ with ataxin-7 inclusions, DSI: 13.6 ± 0.9 %
  Neurons ChAT+ field (0.26 mm^2), Proximal colon: 81.9 ± 2.4 field (0.26 mm^2)
  Neurons ChAT+/field (0.26 mm^2), DSI: 67.2 ± 1.5^∘ /field (0.26 mm^2)
[13]; 1 mg/kg
  Neurons Calretinin+/field (0.26 mm^2), DSI: 25.4 ± 0.7 /field (0.26 mm^2)
  Neurons Calretinin+/field (0.26 mm^2), Proximal Colon: 44.3 ± 2.0**^∘∘ /field (0.26 mm^2)
[13]; 3 mg/kg
  Neurons Calretinin+/field (0.26 mm^2), DSI: 24.3 ± 1.0 /field (0.26 mm^2)
  Neurons Calretinin+/field (0.26 mm^2), Proximal Colon: 49.1 ± 1.8*^∘∘∘ /field (0.26 mm^2)
[14]; 1 mg/kg
  CHAT/Actin cytoplasm: 0.94
  nNOS/Actin cytoplasm: 1.12
[14]; 3 mg/kg
  CHAT/Actin cytoplasm: 0.93
  nNOS/Actin cytoplasm: 0.91
[15]
  5HT4R mRNA expression levels in DSI and colon: not altered
[16]
  Orocecal transit time, between-treatment difference of changes: −16.4
  Orocecal transit time, mean: 162.9 ± 67.32 min and 162.9 min
  Orocecal transit time, mean change between velusetrag and placebo: −81.8
  Orocecal transit time, mean change from Visit 1 (Screening): -6.4 ± 118.70 min and -6.4 min
[17]; Safety Set
  treatment-related TEAEs and cardiovascular adverse reactions: no treatment-related TEAEs were observed and no cardiovascular adverse reactions were observed
[17]; Safety Set, 17 subjects
  deaths, serious TEAEs, TEAEs leading to discontinuation or interruption: No deaths, serious TEAEs, or TEAEs leading to treatment discontinuation or treatment interruption were reported
[17]; all regimens studied
  overall safety and tolerability: safe and well-tolerated
[18]
  gastric emptying (GE) time: effective to accelerate gastric emptying
